≈ marks a conversion by molar mass, not a printed value.
Tested on: Candida albicans
Test: Antifungal activity against fluconazole resistant Candida albicans isolate Gu5 overexpressing CDR1 and CDR2 in RPMI-1640 buffered medium after 24 hrs by microdilution method
Format: functional
How it was run: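 C. albicans cells were grown in 2% glucose, 1% yeast extract, 1% Bacto peptone medium before testing. CARE-2 fingerprinting confirmed that each pair is a single strain.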

`OC(Cn1cncn1)(Cn1cncn1)c1ccc(F)cc1F` [FLUCONAZOLE] gave an MIC of 256 µg/mL (≈ 836 µM).

Source: ChEMBL document CHEMBL1649115, “Enhanced susceptibility to antifungal oligopeptides in yeast strains overexpressing ABC multidrug efflux pumps” (Antimicrob Agents Chemother, 2008)
